The assay is described as follows: Activation of NQO1 in human A549 cells assessed as decrease in cell survival incubated for 2 hrs measured after 7 days in presence of NQO1 inhibitor dicoumarol by Hoechst 33258 staining based assay.

Each structure is given as a SMILES string.

One molecule from BindingDB's records for doi:10.1016/j.ejmech.2016.06.019 (Federal University of Minas Gerais, 2016) can be followed below.

`CC1(C)CCC2=C(O1)c1ccccc1C(=O)C2=O` [R115 (Reactive Blue 2)]: the IC50 was > 10 µM.
